Reference: patent US11077120B2, “Prostaglandin receptor EP2 antagonists, derivatives, compositions, and uses related thereto” (Emory University, priority 2014, dated 2021)

The chains behind the UniProt entries cited, without tags or fusion partners. Where a name states a change or a piece, a line headed by the entry shows the natural chain unless it says otherwise.
UniProt P43119: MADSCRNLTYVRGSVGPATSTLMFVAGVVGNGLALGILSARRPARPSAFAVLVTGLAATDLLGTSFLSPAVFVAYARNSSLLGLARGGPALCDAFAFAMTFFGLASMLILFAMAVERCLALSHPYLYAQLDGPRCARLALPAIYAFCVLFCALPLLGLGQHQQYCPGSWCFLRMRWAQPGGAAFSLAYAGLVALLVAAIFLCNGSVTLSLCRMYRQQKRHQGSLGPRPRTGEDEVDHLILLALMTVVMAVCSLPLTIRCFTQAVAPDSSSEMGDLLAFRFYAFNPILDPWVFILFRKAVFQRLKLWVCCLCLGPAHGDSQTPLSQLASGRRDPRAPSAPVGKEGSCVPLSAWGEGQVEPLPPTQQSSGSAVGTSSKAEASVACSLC
UniProt P35408: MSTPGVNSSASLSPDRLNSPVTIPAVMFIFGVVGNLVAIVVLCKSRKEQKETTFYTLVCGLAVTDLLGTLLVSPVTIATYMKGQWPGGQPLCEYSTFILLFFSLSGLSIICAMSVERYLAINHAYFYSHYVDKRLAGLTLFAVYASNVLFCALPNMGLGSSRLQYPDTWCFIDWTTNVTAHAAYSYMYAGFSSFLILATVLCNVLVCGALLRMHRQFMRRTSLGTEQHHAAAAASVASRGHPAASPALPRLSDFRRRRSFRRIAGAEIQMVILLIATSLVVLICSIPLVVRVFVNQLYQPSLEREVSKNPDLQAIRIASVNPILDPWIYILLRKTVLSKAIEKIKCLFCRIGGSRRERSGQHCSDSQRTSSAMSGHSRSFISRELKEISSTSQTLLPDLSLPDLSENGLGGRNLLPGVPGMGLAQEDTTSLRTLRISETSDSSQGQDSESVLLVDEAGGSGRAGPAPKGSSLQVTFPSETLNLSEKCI

What was measured:
human IP receptors = target: T1, human IP receptors (Homo sapiens, UniProt P43119); test: cell-based cAMP TR-FRET assay, IP (agonist iloprost); details: Table 2
T1 construct: expressed in transfected cells
Protocol: (§1) These derivatives were selected for testing against EP4 and IP receptors. Cell lines were created that overexpress EP4 receptors, or IP receptors on C6-glioma cells. A cAMP-derived TR-FRET assay was developed using agonists PGE2 (for EP4) and iloprost (for IP), similar to EP2 assay.
(§2) Intracellular cAMP was measured with a cell-based homogeneous time-resolved fluorescence resonance energy transfer (TR-FRET) method (Cisbio Bioassays). […] Endogenous cAMP produced by cells competes with labeled cAMP for binding to the cAMP antibody and thus reduces the FRET signal. Cells stably expressing human DP1, EP2, EP4, or IP receptors were seeded into 384-well plates in 30 μl complete medium (4,000 cells/well) and grown overnight. The medium was carefully withdrawn and 10 μl Hanks' Buffered Salt Solution (HBSS) (Hyclone) containing 20 μM rolipram was added into the wells to block phosphodiesterases. […] After 60-90 min incubation at room temperature, the FRET signal was measured by an Envision 2103 Multilabel Plate Reader (PerkinElmer Life Sciences) with a laser excitation at 337 nm and dual emissions at 665 nm and 590 nm for d2 and Cryptate (50 s delay), respectively. The FRET signal was expressed as: F665/F590×10^4.

C6-glioma cells = details: rat
human EP4 receptors = target: T2, human EP4 receptors (Homo sapiens, UniProt P35408); test: cell-based cAMP TR-FRET assay, EP4 (agonist PGE2)
T2 construct: expressed in transfected cells
Protocol: as §1, §2

[1] = in vivo pharmacokinetic study of 7z (ip vs po); details: intraperitoneal vs oral route
human DP1 receptors = target: T3, human DP1 receptors (Homo sapiens, UniProt Q13258); test: cell-based cAMP TR-FRET assay, DP1 (agonist BW245C); details: Table 2
T3 construct: expressed in transfected cells
T3 sequence (Q13258 1-359): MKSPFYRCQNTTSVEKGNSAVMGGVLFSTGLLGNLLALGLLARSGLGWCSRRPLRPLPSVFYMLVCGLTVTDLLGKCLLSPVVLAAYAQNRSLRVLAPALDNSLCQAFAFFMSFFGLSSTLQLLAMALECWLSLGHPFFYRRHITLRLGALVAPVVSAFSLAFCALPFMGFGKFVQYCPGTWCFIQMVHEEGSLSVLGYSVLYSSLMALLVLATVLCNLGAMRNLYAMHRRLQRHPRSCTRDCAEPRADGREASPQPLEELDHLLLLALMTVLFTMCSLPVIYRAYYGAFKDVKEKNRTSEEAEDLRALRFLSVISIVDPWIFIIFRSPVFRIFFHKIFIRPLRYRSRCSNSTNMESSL
Protocol: The synthesis was carried out starting from commercially available 2-methyl indole or 2-trifluoromethyl indoles (11a-c), which on treatment with bromoacetonitrile provided intermediates (12a-c), which then were subjected to lithium aluminum hydride to reduce cyanide to amines. […] Synthesized derivatives were tested by using a cAMP-derived TR-FRET assay, at single concentration (1 μM) to observe a rightward shift of PGE2 (an EP2 agonist) concentration response curve in a C6G cell line that overexpresses human EP2 receptors.
Intracellular cAMP was measured with a cell-based homogeneous time-resolved fluorescence resonance energy transfer (TR-FRET) method (Cisbio Bioassays). […] Endogenous cAMP produced by cells competes with labeled cAMP for binding to the cAMP antibody and thus reduces the FRET signal. Cells stably expressing human DP1, EP2, EP4, or IP receptors were seeded into 384-well plates in 30 μl complete medium (4,000 cells/well) and grown overnight. The medium was carefully withdrawn and 10 μl Hanks' Buffered Salt Solution (HBSS) (Hyclone) containing 20 μM rolipram was added into the wells to block phosphodiesterases. […] The FRET signal was expressed as: F665/F590×10^4.

Cc1cc2ccccc2n1CCNC(=O)c1ccc(-c2nnn[nH]2)cc1 [Compound 7z]
Selective Index (IP/EP2) (human IP receptors): 1040
Therapeutic Index (CC50/EP2 KB) (C6-glioma cells): >13,450
selectivity over EP4 (human EP4 receptors; EP2 over EP4): ~600 fold
Selective Index EP4/EP2 (human EP4 receptors; Table 2): 584
fold higher peak concentrations in plasma, ip in comparison to po [1]: about 12 fold
Selective Index (DP1/EP2) (human DP1 receptors): 29
